# Measurements: patent EP4168403B1 (priority 2020, dated 2021)
# The chains behind the UniProt entries cited, without tags or fusion partners. Residues count along the entry.
# UniProt P05067, 672-713 limits assumed: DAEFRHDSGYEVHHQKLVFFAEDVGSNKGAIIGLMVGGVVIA
# UniProt P21397, whole entry: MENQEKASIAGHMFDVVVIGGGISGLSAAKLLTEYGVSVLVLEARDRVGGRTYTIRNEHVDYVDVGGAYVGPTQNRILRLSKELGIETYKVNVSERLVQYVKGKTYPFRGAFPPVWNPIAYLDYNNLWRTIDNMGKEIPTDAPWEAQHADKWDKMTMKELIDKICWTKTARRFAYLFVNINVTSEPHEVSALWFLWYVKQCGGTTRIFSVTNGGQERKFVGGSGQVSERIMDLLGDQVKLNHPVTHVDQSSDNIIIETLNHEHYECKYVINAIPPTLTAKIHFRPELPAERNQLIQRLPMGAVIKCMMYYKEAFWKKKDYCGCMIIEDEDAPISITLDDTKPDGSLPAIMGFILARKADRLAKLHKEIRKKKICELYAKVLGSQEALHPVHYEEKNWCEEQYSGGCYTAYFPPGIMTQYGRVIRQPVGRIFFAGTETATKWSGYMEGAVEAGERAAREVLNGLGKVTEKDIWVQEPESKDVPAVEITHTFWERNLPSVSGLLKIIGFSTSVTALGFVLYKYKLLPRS
# UniProt P27338, whole entry: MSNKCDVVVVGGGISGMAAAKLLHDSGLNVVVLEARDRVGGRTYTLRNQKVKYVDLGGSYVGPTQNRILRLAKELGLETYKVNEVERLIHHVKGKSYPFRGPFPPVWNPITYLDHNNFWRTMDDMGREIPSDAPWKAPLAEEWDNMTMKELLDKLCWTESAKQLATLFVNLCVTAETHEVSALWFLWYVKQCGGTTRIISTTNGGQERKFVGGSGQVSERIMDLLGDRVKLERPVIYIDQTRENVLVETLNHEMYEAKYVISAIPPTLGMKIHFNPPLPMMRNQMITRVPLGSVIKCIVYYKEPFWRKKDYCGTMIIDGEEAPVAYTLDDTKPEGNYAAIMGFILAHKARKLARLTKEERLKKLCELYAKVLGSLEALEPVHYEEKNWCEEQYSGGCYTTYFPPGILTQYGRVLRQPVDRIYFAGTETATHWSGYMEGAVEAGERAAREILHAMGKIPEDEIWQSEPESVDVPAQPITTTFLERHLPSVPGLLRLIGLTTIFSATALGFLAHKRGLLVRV
# UniProt P49841, whole entry: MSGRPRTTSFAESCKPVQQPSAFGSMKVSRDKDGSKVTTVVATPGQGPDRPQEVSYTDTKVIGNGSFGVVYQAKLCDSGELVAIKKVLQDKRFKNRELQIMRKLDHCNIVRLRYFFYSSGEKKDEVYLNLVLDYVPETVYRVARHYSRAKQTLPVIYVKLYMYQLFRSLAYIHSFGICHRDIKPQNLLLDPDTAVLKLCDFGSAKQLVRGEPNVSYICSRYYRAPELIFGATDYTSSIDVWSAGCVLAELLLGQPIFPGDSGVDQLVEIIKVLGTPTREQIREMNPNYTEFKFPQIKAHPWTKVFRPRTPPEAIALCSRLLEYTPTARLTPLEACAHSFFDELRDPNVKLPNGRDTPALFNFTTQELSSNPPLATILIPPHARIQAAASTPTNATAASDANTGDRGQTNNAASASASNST
# UniProt P10636, 623-653 limits assumed: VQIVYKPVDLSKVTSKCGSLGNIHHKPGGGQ
# UniProt P22303, 32-617 isoform 2 limits assumed: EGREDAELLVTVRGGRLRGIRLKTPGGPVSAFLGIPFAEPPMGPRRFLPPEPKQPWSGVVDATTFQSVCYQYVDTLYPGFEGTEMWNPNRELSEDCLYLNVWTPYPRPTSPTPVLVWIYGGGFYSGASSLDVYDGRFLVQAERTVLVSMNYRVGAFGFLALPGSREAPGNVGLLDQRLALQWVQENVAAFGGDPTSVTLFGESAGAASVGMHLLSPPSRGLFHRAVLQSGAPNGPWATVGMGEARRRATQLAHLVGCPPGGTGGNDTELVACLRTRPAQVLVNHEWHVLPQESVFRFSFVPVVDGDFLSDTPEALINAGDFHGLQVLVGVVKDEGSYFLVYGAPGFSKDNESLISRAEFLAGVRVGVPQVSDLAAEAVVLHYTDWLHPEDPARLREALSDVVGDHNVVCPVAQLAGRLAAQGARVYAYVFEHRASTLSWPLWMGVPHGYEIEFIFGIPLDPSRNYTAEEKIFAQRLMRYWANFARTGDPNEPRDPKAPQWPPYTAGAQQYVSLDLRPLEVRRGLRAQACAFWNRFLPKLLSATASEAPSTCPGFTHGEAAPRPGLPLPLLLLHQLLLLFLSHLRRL
# Tests used:
# [1] = system: voltage-gated Ca^2+ channels (VGCC); assay: Calcium channel antagonist assay (K+-evoked cytosolic Ca2+, Fluo-4); assay type: cell-based; conditions: read-out: IC50 (µM) Calcium channels blockade, SH-SY5Y cells, K+ 70 mM, mean ± SEM
# Procedure: The cytosolic Ca^2+ has been measured in SH-SY5Y cells. SH-SY5Y cells were maintained similarly to what was previously described^30. Free cytosolic Ca^2+ was measured using the fluorescent Ca^2+ indicator Fluo-4/AM (Fluo-4 acetomethoxyester). SH-SY5Y cells were seeded onto 96-well black plates at a density of 10^5 cells per well, achieving confluence after 48 h. Cells were washed with Krebs-Hepes solution (KH, in mM: 144 NaCl, 5.9 KCl, 1.2 MgCl2, 2 CaCl2, 11 D-glucose, 10 HEPES, pH 7.4). Cells were loaded with 10 µM Fluo-4/AM and 0.2% pluronic acid in KH and incubated for 45 min at 37 °C in the dark. Then, cells were washed twice with KH to remove the excess of probe. […] To normalize Fluo-4 signals, Triton X-100 (5%) and 1 M MnCl2 were applied to register both maximal and minimal fluorescence, respectively. The experiments were analyzed at excitation and emission wavelengths of 485 and 520 nm, respectively, and fluorescence was measured in a fluorescence microplate reader (FLUOstar Optima, BMG, Germany). Data were calculated as a percentage of Fmax - Fmin.
# The blocking effect of the depolarization-induced Ca^2+ uptake was investigated in SH-SY5Y neuroblastoma cells stimulated with an extracellular concentration of K+ 70 mM, which induces the cell Ca^2+ levels elevation by opening voltage-gated Ca^2+ channels (VGCC), monitored with the Ca^2+-sensitive fluorescent dye Fluo-4. […]
# Aβ1-42 = Aβ1-42 (Homo sapiens, UniProt P05067); assay: Inhibition of Aβ1-42 self-aggregation (ThT fluorescence); assay type: biochemical; conditions: [Inhibitor]=[Aβ1-42]=50 µM, mean ± SEM
# Procedure: 1,1,1,3,3,3-Hexafluoro-2-propanol (HFIP) pre-treated Aβ1-42 samples (Bachem AG, Switzerland) were resolubilized with a MeCN/Na2CO3/NaOH (48.4/48.4/3.2) mixture to have a stable stock solution ([Aβ1-42]=500 µM)^35. Experiments were performed by incubating the peptide in 10 mM phosphate buffer (pH=8.0) containing 10 mM NaCl, at 30 °C for 24 h (final Aβ concentration=50 µM with and without inhibitor (50 µM). The inhibitor was dissolved in methanol and diluted in the assay buffer. Blanks containing inhibitor and ThT were also prepared and evaluated to account for quenching and fluorescence properties. To quantify amyloid fibril formation, the ThT fluorescence method was used^36, 37. After incubation, samples were diluted to a final volume of 2.0 mL with […] glycine-NaOH buffer (pH= 8.5) containing 1.5 µM ThT. A 300-seconds-time scan of fluorescence intensity was carried out (λexc=446 nm; λem=490 nm), and values at plateau were averaged after subtracting the background fluorescence of 1.5 µM ThT solution. The fluorescence intensities were compared and the % inhibition was calculated.
# The inhibitory activity of compounds BIGI-3e, BIGI-3h and BIGI-3k against the spontaneous aggregation of Aβ1-42 was determined in vitro using a thioflavin T (ThT)-based fluorometric assay^35. […].
# [2] = Prediction of blood-brain barrier penetration (PAMPA); assay type: in vitro ADME; conditions: PBS pH 7.4, 50 µM in donor well
# Procedure: To predict passive blood-brain penetration of novel compounds modification of the parallel artificial membrane permeation (PAMPA) assay has been used based on reported protocol^38, 39. The filter membrane of the donor plate was coated with PBL (Polar Brain Lipid, Avanti, USA) in dodecane (4 µl of 20 mg/ml PBL in dodecane) and the acceptor well was filled with 300 µl of PBS pH 7.4 buffer (VD). Tested compounds were dissolved first in DMSO (0.5% (V/V) final) and that diluted with PBS pH 7.4 to reach the final concentration 50 µM in the donor well. 300 µl of the donor solution was added to the donor wells (VA) and the donor filter plate was carefully put on the acceptor plate so that coated membrane was "in touch" with both donor solution and acceptor buffer. Test compound diffused from the donor well through the lipid membrane (Area=0.28cm^2) to the acceptor well. The concentration of the drug in both donor and the acceptor wells was assessed after 3, 4, 5 and 6 hours of incubation in quadruplicate using the UV plate reader Synergy HT (Biotek, USA) at the maximum absorption wavelength and the standard curve for each compound. […]
# MAO-A = MAO-A (Homo sapiens, UniProt P21397); assay: Monoamine oxidase inhibition (kynuramine), MAO-A; assay type: biochemical; conditions: 42 nM MAO-A, kynuramine 50 µM, mean ± SEM; for IC50: read-out: MAO A (IC50 µM)
# MAO-B = MAO-B (Homo sapiens, UniProt P27338); assay: Monoamine oxidase inhibition (kynuramine), MAO-B; assay type: biochemical; conditions: read-out: MAO B (IC50 µM), 200 nM MAO-B, kynuramine 50 µM, mean ± SEM
# Human recombinant GSK-3β = Human recombinant GSK-3β (Homo sapiens, UniProt P49841); assay: GSK-3β inhibition in vitro assay (Kinase-Glo luminescence); assay type: biochemical; conditions: read-out: GSK-3β inhibition (IC50 µM), ATP 1 µM, GSM substrate 25 µM, mean ± SEM
# Procedure: Human recombinant GSK-3β, prephosphorylated polypeptide substrate and white 96-well plates were purchased from Millipore (Millipore Iberica S.A.U.). Kinase-Glo Luminescent Kinase Assay was obtained from Promega (Promega Biotech Iberica, SL). Adenosinetriphosphate (ATP) and all other reagents were from Sigma-Aldrich. Assay buffer contained 50 mM 4-(2-hydroxyethyl)-1- piperazineethanesulfonic acid (HEPES) (pH 7.5), 1 mM ethylenediaminetetraacetic acid (EDTA), 1 mM ethylene glycol tetraacetic acid (EGTA), and 15 mM magnesium acetate. The in solution experiments for GSK-3β inhibition analysis were performed by following the method developed by Baki et al^42. In a typical assay, 10 µL of test compound (dissolved in DMSO at 1 mM concentration and diluted in advance in assay buffer to the desired concentration) and 10 µL (20 ng) of enzyme were added to each well in presence of 20 µL of assay buffer containing GSM substrate and ATP in order to reach a 25 µM and 1 µM final concentration respectively. […] After a 30 min incubation time at 30 °C, the enzymatic reaction was stopped by adding 40 µL of Kinase-Glo reagent. Glow-type luminescence was recorded after 10 min using a VictorX 3 PerkinElmer plate reader. […]. The linear regression parameters were determined and the IC50 extrapolated (GraphPad Prism 4.0, GraphPad Software Inc.).
# Tau(306-336) peptide = Tau(306-336) peptide (Homo sapiens, UniProt P10636); conditions: Tau(306-336) 50 µM, inhibitor 50 µM (1:1 ratio), mean ± SEM
# [3] = target: Human red-blood cell acetylcholinesterase (hAChE; EC 3.1.1.7) (Homo sapiens, UniProt P22303); conditions: read-out: AChE (IC50 µM), pH 7.4, 37 °C, mean ± SEM
Structure (SMILES),IC50 [1],% inhibition Aβ1-42 aggregation (Aβ1-42),Pe ± SEM (*10^-6 cm s^-1) [2],MAO A (IC50 µM) (MAO-A),IC50 (MAO-A),IC50 (MAO-B),IC50 (Human recombinant GSK-3β),Inhibition of T (306-336) peptide self - aggregation (%) (Tau(306-336) peptide),IC50 [3],IC50 (MAO-B; listed as BIGI-3h ISO2),IC50 (Human recombinant GSK-3β; listed as BIGI-3h ISO2)
"CCOC(=O)C1=C(C)N(CCC2CCN(Cc3ccccc3)CC2)C(=O)NC1c1coc2c(Cl)cc(Cl)cc2c1=O (single isomer, unassigned) [BIGI-3h ISO1 (+)]",5 µM,66.5 ± 0.9%,6.7 ± 0.4 *10^-6 cm s^-1,modest inhibition,75.6 µM,11.2 µM,10.6 µM,78.3 ± 3.0%,0.09 µM,–,–
"CCOC(=O)C1=C(C)N(CCC2CCN(Cc3ccccc3)CC2)C(=O)NC1c1coc2c(Cl)cc(Cl)cc2c1=O (single isomer, unassigned) [BIGI-3h ISO2 (-)]",1.6 µM,63.5 ± 0.2%,–,modest inhibition,195 µM,12.3 µM,24.3 µM,75.3 ± 1.6%,0.07 µM,12.3 µM,24.3 µM

# Like-named read-outs stand apart in the source and are kept apart here.
